This assay addresses Human recombinant cathepsin K (Homo sapiens (Human), UniProt P43235). The experiment in a line: In vitro cathepsin Ki inhibition measurements. In kind it is biochemical. Particulars: read-out: Ki (nM) vs Human Cathepsin K, prior art WO-A-02057270 examples.

Protein sequences, listed by entry. Tags and fused reporters are not part of them. Residues count along the entry.
UniProt P43235, 115-329 limits assumed: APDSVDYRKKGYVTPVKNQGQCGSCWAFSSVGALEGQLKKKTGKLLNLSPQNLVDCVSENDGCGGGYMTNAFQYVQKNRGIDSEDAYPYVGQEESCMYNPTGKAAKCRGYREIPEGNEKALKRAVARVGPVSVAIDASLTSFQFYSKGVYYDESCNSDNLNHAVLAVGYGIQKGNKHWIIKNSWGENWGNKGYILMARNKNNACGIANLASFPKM

The Ki is the dissociation constant of the complex between target and ligand, obtained from inhibition or displacement.

Molecules are shown by their SMILES. Some results are limits rather than exact numbers.

For `O=C(N[C@@H](Cc1ccc(O)cc1)C(=O)N1CC[C@H]2OCC(=O)[C@H]21)c1ccc(-c2ccccc2)cc1`, the inhibitory constant (Ki) was more than 50000 nM.

As to `CC(C)(C)c1ccc(C(=O)N[C@@H](Cc2ccc(O)cc2)C(=O)N2CC[C@H]3OCC(=O)[C@H]32)cc1`, the Ki was more than 4000 nM.

The record behind these values is patent publication US8501744B2, “Piperazine compounds” (Amura Therapeutics, Limited, priority 2008, dated 2013).
